From patent US5073627A, “Fusion proteins comprising GM-CSF and IL-3” (Immunex Corporation, priority 1990, dated 1991)

Assays:
AML-193 cells = test: Thymidine incorporation assay, proliferation of AML-193 cells; type: cell-based, human; conditions: one unit = amount of growth factor for half-maximal thymidine incorporation
Method: The cells were split twice weekly and were seeded into fresh medium at a density of 300,000/ml.
These samples were then serially diluted by 3-fold through the additional 11 wells of the microtitre plate. […] Tritiated thymidine ([…]) was added to each well for an additional 6 hours of incubation and the samples were harvested with an automated sample harvester and counted by liquid scintillation. One unit of activity is defined as the amount of growth factor required to stimulate half-maximal thymidine incorporation.

[1] = molecular target: T1, receptors for GM-CSF on KG-1 cells (Homo sapiens, UniProt P15509+P32927); test: Inhibition of 125I-GM-CSF binding to KG-1 cells
T1 construct: endogenous in cells; host or cells: KG-1
T1 sequence (P15509 23-400): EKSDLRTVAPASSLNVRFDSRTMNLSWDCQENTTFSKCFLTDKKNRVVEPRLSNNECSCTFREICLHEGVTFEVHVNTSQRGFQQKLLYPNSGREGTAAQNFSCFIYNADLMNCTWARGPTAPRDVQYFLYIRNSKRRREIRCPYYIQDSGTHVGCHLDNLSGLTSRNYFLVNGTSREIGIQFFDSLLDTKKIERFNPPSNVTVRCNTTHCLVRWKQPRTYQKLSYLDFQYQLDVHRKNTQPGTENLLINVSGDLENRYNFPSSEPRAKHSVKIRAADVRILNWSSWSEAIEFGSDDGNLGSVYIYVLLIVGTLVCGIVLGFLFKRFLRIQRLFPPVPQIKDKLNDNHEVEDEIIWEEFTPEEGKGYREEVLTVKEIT
T1 sequence (P32927 17-897): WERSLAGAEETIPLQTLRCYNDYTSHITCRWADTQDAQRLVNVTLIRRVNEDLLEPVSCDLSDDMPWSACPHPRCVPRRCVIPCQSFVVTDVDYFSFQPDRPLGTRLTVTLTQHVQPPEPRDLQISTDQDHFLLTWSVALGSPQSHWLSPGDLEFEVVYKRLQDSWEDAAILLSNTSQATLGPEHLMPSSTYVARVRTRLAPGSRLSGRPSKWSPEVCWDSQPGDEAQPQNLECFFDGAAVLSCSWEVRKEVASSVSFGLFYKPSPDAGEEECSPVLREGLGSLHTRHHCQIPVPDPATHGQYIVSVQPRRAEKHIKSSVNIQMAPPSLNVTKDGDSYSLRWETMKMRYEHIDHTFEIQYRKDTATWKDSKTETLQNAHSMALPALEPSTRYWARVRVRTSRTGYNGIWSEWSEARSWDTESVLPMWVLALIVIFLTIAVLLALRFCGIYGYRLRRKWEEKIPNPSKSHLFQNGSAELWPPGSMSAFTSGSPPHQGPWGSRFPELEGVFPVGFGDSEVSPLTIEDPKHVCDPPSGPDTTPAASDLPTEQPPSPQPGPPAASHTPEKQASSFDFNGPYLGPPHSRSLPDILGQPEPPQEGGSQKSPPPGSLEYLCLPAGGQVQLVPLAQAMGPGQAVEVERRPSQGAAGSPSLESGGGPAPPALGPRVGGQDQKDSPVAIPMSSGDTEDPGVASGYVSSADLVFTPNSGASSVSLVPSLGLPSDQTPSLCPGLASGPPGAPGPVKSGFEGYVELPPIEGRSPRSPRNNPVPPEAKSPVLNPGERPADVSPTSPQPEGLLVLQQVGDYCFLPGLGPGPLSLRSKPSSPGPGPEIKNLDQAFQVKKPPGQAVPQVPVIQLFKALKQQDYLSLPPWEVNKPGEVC
Method: (§1) Briefly, 2-10 μg of recombinant protein in 50 μl 0.2M sodium phosphate, pH 7.2, was combined with 50 μl enzymobead reagent, 2 mCi of sodium iodide in 20 μl of 0.05M sodium phosphate pH 7 and 10 μl of 2.5% β-D-glucose. After 10 min at 25° C., sodium azide (10 μl of 50 mM) and sodium metabisulfite (10 μl of 5 mg/ml) were added sequentially and incubation continued for 5 minutes at 25° C.
(§2) B. Binding Assays. Binding assays were performed using JM-1, KG-1, HL-60 and AML-193 cells.

[2] = molecular target: T2, receptors for GM-CSF on AML-193 cells (Homo sapiens, UniProt P15509+P32927); test: Inhibition of 125I-GM-CSF binding to AML-193 cells
T2 construct: endogenous in cells; host or cells: AML-193
T2 sequence (P15509 23-400): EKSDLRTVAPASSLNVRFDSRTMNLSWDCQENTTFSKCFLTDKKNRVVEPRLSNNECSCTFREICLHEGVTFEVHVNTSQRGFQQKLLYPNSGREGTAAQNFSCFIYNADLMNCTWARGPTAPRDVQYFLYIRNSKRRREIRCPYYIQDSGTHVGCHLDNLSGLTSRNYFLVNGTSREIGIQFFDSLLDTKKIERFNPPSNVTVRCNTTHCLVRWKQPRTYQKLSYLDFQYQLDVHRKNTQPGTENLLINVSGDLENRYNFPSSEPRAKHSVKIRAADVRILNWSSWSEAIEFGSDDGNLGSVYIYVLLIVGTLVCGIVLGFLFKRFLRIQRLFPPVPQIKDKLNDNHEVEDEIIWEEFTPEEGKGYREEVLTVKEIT
T2 sequence (P32927 17-897): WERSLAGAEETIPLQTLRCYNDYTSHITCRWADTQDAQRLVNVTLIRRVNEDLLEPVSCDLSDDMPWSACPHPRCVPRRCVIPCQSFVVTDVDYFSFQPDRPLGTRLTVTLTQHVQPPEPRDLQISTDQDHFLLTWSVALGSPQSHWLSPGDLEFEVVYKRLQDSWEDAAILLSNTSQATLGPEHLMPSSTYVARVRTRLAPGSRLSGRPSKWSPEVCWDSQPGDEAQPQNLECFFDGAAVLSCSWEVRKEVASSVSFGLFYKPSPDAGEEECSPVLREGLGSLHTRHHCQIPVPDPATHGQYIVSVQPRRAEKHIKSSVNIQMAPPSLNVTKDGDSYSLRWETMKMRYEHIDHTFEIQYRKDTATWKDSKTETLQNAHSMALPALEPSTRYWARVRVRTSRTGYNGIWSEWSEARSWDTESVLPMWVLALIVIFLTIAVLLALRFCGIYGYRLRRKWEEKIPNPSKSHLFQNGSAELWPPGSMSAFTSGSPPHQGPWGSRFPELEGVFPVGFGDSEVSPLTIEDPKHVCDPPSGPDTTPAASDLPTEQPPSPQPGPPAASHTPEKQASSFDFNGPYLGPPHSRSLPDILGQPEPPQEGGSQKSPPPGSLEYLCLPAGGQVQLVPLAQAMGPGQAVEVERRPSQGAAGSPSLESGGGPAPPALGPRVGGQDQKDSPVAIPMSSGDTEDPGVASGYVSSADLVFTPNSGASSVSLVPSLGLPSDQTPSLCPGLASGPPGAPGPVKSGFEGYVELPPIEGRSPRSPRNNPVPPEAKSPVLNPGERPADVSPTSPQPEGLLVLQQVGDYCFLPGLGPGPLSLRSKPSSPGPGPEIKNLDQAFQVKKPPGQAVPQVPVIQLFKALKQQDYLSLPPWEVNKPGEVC
Method: as §1, §2

[3] = tested on: unfractionated human bone marrow; test: Human bone marrow colony formation (CFU-GEMM, CFU-GM, BFU-E); type: cell-based; conditions: Table D; for Colonies (Mean ± S.D.) CFU-GEMM / Colonies (Mean ± S.D.) CFU-GM: 14 days; for Colonies (Mean ± S.D.) BFU-E: with erythropoietin, background 48 ± 2; for Colonies (Mean ± S.D.) CFU-GM: agar
[4] = molecular target: T3, receptors for GM-CSF on HL-60 cells (Homo sapiens, UniProt P15509+P32927); conditions: as described by Park et al.; cited from earlier work
T3 construct: endogenous in cells; host or cells: HL-60
T3 sequence (P15509 23-400): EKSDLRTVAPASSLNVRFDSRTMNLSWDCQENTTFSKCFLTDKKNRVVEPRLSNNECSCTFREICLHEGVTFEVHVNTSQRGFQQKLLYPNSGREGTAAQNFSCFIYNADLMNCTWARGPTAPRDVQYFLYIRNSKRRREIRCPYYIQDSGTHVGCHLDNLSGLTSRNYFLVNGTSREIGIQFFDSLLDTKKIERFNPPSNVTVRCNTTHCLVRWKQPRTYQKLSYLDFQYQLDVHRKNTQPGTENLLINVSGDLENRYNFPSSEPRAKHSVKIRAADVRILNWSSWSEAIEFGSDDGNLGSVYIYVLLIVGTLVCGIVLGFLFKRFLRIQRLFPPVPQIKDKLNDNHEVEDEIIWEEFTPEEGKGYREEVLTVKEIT
T3 sequence (P32927 17-897): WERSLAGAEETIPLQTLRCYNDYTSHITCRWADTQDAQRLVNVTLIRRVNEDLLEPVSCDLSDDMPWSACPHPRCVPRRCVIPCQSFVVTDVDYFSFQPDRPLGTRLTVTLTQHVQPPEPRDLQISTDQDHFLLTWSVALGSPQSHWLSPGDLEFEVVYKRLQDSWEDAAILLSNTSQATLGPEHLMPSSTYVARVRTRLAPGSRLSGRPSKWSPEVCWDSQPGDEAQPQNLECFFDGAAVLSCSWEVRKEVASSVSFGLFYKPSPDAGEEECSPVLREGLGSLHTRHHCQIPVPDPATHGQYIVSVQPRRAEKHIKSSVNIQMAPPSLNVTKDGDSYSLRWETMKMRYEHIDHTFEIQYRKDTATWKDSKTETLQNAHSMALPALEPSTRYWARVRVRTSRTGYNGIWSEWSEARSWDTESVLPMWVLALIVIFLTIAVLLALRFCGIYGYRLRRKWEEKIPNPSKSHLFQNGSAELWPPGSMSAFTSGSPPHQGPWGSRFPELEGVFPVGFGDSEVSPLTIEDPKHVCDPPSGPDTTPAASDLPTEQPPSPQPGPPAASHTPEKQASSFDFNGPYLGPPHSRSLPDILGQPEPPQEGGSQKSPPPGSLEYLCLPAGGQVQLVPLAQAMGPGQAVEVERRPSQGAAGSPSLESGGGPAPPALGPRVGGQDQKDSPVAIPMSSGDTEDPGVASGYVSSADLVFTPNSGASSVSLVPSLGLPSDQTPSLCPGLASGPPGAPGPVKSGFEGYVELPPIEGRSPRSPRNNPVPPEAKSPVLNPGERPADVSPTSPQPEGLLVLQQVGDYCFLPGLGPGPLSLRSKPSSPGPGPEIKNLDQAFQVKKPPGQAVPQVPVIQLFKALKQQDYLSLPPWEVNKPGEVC

[5] = 625 pg/ml (GM-CSF + IL-3: 625 + 625)
[6] = 1250 pg/ml (GM-CSF + IL-3: 1250 + 1250)
[7] = 2500 pg/ml (GM-CSF + IL-3: 2500 + 2500)
[8] = 5000 pg/ml (GM-CSF + IL-3: 5000 + 5000)

B1: IL-3: recombinant human Interleukin-3 expressed in yeast, comparator (protein, UniProt P08700 20-152, looked up)
Interleukin-3: APMTQTTPLKTSWVNCSNMIDEIITHLKQPPLPLLDFNNLNGEDQDILMENNLRRPNLEAFNRAVKSLQNASAIESILKNLLPCLPLATAAPTRHPIHIKDGDWNEFRRKLTFYLKTLENAQAQQTTLSLAIF
modifications: expressed in yeast
notes: recombinant human Interleukin-3 expressed in yeast, comparator
Specific Activity (AML-193 cells): 1.65 × 10^5 units/mg | Competition of specific binding of heterologous radiolabeled ligand [1]: partially compete | Competition of specific binding of heterologous radiolabeled ligand [2]: partially compete | Colonies (Mean ± S.D.) CFU-GEMM ([3]; 312 pg/ml (GM-CSF + IL-3: 312 + 312)): 0 colonies | Colonies (Mean ± S.D.) CFU-GEMM [3, 5]: 0 colonies | Colonies (Mean ± S.D.) BFU-E [3, 5]: 45 ± 3 colonies | Colonies (Mean ± S.D.) CFU-GEMM [3, 6]: 1.3 ± 0.3 colonies | Colonies (Mean ± S.D.) CFU-GM [3, 6]: 4 ± 1 colonies | Colonies (Mean ± S.D.) BFU-E [3, 6]: 49 ± 2 colonies | Colonies (Mean ± S.D.) CFU-GEMM [3, 7]: 4.0 ± 0.4 colonies | Colonies (Mean ± S.D.) CFU-GM [3, 7]: 9 ± 1 colonies | Colonies (Mean ± S.D.) BFU-E [3, 7]: 66 ± 2 colonies | Colonies (Mean ± S.D.) CFU-GEMM [3, 8]: 4.0 ± 0.7 colonies | Colonies (Mean ± S.D.) CFU-GM [3, 8]: 16 ± 0.3 colonies | Colonies (Mean ± S.D.) BFU-E [3, 8]: 67 ± 2 colonies | Inhibition of 125I-GM-CSF binding to HL-60 cells [4]: nor does IL-3 inhibit binding
